Test results: US11919886B2, “4,9-dioxo-4,9-dihydronaphtho[2,3-B]furan-3-carboxamide derivatives and uses thereof for treating proliferative diseases and infectious diseases” (Academia Sinica, priority 2016, dated 2024)

System: gefitinib-sensitive and gefitinib-resistant lung cancer cells
Test: SRB cytotoxicity assay, lung cancer cell lines overall

Compound: Cc1oc2c(c1C(=O)NCCCn1ccnc1)C(=O)c1ccccc1C2=O [Compound 1, N-(3-(1H-Imidazol-1-yl)propyl)-2-methyl-4,9-dioxo-4,9-dihydronaphtho [2,3-b]furan-3-carboxamide]
- IC50 (Homo sapiens, 72 h, read-out: IC50, inhibition of growth): < 300 nM
- higher potency for cancer cells than normal cells (cancer cells vs normal cells): ≥ 3 fold
